Target: Beta-secretase 1 (Homo sapiens, UniProt P56817)
Assay: Binding affinity for human brain memapsin 2

Amino acid sequences for entries named in this document (tags omitted). A change or cut given only in a name is not applied to a line headed by its entry.
UniProt P56817: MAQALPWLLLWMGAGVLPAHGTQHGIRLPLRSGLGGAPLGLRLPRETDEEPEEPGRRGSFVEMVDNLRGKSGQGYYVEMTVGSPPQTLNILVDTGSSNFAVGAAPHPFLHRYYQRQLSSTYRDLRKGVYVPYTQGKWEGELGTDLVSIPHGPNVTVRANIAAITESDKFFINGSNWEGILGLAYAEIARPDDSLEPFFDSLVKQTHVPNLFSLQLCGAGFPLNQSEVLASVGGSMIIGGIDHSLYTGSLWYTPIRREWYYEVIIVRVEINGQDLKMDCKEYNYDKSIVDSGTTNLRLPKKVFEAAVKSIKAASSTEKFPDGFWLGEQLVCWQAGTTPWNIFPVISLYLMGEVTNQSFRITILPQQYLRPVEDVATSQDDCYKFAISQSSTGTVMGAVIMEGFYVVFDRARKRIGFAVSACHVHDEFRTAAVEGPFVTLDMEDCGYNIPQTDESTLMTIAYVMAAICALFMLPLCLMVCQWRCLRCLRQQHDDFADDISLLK

| Ki | Compound |
| --- | --- |
| 0.008 µM | CC(C)C[C@H](NC(=O)[C@H](CCS(C)(=O)=O)NC(=O)[C@@H](NC(=O)OC(C)(C)C)C(C)C)[C@@H](O)C[C@@H](C)C(=O)N[C@H](C(=O)NCc1ccccc1)C(C)C |
| 10.5 µM | CSCC[C@H](NC(=O)[C@@H](NC(=O)OC(C)(C)C)C(C)C)C(=O)N[C@@H](CC(C)C)[C@@H](O)C[C@@H](CC(C)C)C(=O)N[C@H](C(=O)NCc1ccccc1)C(C)C |

Source: ChEMBL document CHEMBL1134775, “Structure-based design: potent inhibitors of human brain memapsin 2 (beta-secretase)” (J Med Chem, 2001)
